Earlier results on one compound are cited in patent publication US7590493B2, “Methods for determining hepatotoxins” (priority 2000, dated 2009).

The conditions of the series: after 3 days of drug administration; cited from earlier work.

In the case of `C#C[C@]1(O)CC[C@H]2[C@@H]3CCc4cc(O)ccc4[C@H]3CC[C@@]21C` [17α-ethinylestradiol], the “weight of the liver” value is on record as “increase”.
